This passage reports remaining binding results from article PMC5341070, “Small molecule inhibitors block Gas6-inducible TAM activation and tumorigenicity” (Scientific Reports, 2017).

Sequences of proteins named here, by UniProt entry; tags and fusion partners are left off.
UniProt P00519, whole entry: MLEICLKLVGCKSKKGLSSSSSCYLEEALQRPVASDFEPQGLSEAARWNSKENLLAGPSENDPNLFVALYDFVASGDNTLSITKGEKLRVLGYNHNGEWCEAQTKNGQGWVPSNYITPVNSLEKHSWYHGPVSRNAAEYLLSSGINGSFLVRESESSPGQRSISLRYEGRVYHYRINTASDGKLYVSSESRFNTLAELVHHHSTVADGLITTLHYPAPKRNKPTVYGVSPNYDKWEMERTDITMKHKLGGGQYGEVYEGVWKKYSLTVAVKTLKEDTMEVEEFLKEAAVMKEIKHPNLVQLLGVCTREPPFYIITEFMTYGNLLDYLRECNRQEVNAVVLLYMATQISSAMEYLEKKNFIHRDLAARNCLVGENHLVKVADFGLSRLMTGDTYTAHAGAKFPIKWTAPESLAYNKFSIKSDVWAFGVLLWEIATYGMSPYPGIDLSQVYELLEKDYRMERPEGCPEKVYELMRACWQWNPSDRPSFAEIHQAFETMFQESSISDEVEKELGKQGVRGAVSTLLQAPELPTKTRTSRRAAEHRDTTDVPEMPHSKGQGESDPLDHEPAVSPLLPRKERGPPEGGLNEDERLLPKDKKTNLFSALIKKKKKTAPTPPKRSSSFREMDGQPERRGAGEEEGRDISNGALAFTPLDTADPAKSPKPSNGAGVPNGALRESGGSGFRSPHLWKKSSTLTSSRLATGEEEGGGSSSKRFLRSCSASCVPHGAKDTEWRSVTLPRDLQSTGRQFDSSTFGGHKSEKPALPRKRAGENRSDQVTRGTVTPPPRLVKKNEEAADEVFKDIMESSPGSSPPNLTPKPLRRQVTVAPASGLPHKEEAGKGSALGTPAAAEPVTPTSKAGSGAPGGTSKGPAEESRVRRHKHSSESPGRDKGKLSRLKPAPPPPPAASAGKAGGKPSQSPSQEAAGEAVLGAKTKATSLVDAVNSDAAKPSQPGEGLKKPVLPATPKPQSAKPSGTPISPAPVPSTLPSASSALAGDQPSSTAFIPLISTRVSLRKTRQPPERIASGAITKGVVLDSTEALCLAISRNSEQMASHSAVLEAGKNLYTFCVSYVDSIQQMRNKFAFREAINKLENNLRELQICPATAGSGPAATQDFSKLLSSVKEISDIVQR

This assay has as its target T1, ABL1-phosphorylated (Homo sapiens, UniProt P00519).
T1 construct: phosphorylated
Briefly: biochemical. More on the design: KINOMEscan (DiscoverX) competition binding screen of 97 human kinases, percent of control at 10 uM. To be noted: read-out: R428 %Ctrl @ 10000nM; binding competition, % of control. The procedure:
The KINOMEscan profiling of the inhibitors were performed as per directions by the manufacturer (DiscoverX) against a panel of human protein kinases.

With `Nc1nc(Nc2ccc3c(c2)CC[C@@H](N2CCCC2)CC3)nn1-c1cc2c(nn1)-c1ccccc1CCC2` [R428], the remaining binding at 10 µM worked out at 0.1%.
